{
  "source": "patent EP4772523A1",
  "about": "“D-PEPTIDE AND USE THEREOF” (HIROSAKI UNIVERSITY, priority 2023, dated 2025)",
  "key": {"[1]": {"system": "human head and neck cancer cells SAS and human osteosarcoma cancer cells MG-63", "test": "In-vivo imaging (IVIS) of tumor accumulation in head and neck cancer- and osteosarcoma-bearing mice"}, "[2]": {"system": "PC3-PSMA-/ANXA1- and PC3-PSMA+/ANXA1+", "test": "In-vivo imaging (IVIS) of tumor accumulation of Val-Cit linked Cy7.5 peptides in prostate cancer-bearing nude mice", "text": "Further, variation in accumulation depending on the tumor size was examined. […] Tumor accumulation was examined in the same manner as above (FIG. 22)."}, "[3]": {"system": "PC3-PSMA- and PC3-PSMA+, MBT2, or SAS", "conditions": "10 mg/kg intraperitoneal, tumor size 15 mm"}, "[4]": {"system": "mouse bladder cancer cells MBT2"}, "[5]": {"system": "PSMA-negative/ANXA1-negative human prostate cancer cells PC3 and PSMA-positive/ANXA1-positive PC3 cells", "test": "Anticancer treatment in back subcutaneous PC3 tumor model", "assay_type": "in vivo, nude mice", "conditions": "post-treatment", "description": "1 × 10^6 PSMA-negative/ANXA1-negative human prostate cancer cells PC3 were inoculated into the left back of nude mice, and 1 × 10^6 PSMA-positive/ANXA1-positive PC3 cells were inoculated into the right back of the nude mice. […] As control, 0.919 mg/kg (22.975 ng vcMMAE/25 g mouse) of vcMMAE alone (molecular weight: 1316.6) was administered. The tumor size was monitored by measuring the average radiance (photon/sec/cm^2/sr) of the luciferase-expressing tumor after injection of luciferin (150 mg/mouse) using an IVIS system. After three courses of administration, the tumor size, body weight, pathological test, blood biochemical test, and blood cell count test values were evaluated (FIG. 41)."}, "[6]": {"conditions": "10 mg/kg intraperitoneal, MBT2 tumor 5 mm"}},
  "data": [
    {"substance": "C(MI-Cy7.5)-vc-HPNEVRS [Cy7.5-vc-LHP7, reference compound]", "values": [
      {"measurement": "ex vivo accumulation in main organs", "setting": "[1]; 96 hours after administration, head and neck cancer and osteosarcoma", "result": "did not exhibit tumor-specific accumulation"},
      {"measurement": "accumulation in the tumor", "setting": "[1]; SAS and MG-63, tumor size 7 mm", "result": "no Cy7.5-vc-LHP7 accumulated in the tumor"},
      {"measurement": "ex vivo accumulation in main organs", "setting": "[2]; 96 hours after administration, prostate cancer-bearing mice", "result": "did not exhibit tumor-specific accumulation"},
      {"measurement": "accumulation in the tumor", "setting": "[2]; tumor size 7 mm, dose corresponding to Cy7.5 10 mg/kg, intraperitoneal", "result": "no accumulation in the tumor"},
      {"measurement": "accumulation in the tumor", "setting": "[2]; tumor size 15 mm, 28.7 mg/kg intraperitoneal", "result": "no Cy7.5-vc-LHP7 accumulated in the tumor"}
    ]},
    {"substance": "RRQRRAP(R7)-EMCS-Cy7.5 [L-R7 peptide-Cy7.5, reference compound]", "values": [
      {"measurement": "tumor-specific accumulation", "setting": "[3]", "result": "did not exhibit tumor-specific accumulation"}
    ]},
    {"substance": "c(EMCS-Cy7.5)-hpnevrs [Cy7.5-dhp7]", "values": [
      {"measurement": "time of maximum tumor accumulation", "setting": "[3]; each cancer-bearing nude mouse", "result": 24, "unit": "h"},
      {"measurement": "start of increased fluorescence intensity in the tumor tissue area after administration", "setting": "[4]; [6]", "result": 30, "unit": "min"},
      {"measurement": "strong tumor-specific accumulation maintained until", "setting": "[4]; [6]", "result": 96, "unit": "h"},
      {"measurement": "time at which tumor accumulation reached the plateau", "setting": "[4]; [6]", "result": 24, "unit": "h"},
      {"measurement": "ex vivo accumulation in main organs", "setting": "[4]; 48 and 96 hours after administration", "result": "strongly accumulated in the tumor tissue and the kidney, also accumulated in the intestine, but did not accumulate in other organs"}
    ]},
    {"substance": "c(vcMMAE)-hpnevrs [vcMMAE-dhp7]", "values": [
      {"measurement": "blood biochemical values compared with vcMMAE alone administration group", "setting": "[5]", "result": "did not significantly differ"}
    ]}
  ]
}
